In patent US6083917A, “Methods and compositions for the identification, characterization and inhibition of farnesyltransferase” (Board of Regents, The University of Texas System, priority 1992, dated 2000):

Target: rat brain farnesyltransferase (Rattus norvegicus, UniProt Q02293+Q04631)
Test: Farnesyltransferase assay: transfer of [3H]farnesyl from [3H]FPP to p21H-ras (TCA filter assay), competition by peptides
Format: biochemical
Parameters: Brains from 50 male Sprague-Dawley rats (100-150 g) were homogenized; from tissue; host or cells: rat brain (male Sprague-Dawley rats)
Description: Farnesyltransferase activity was determined by measuring the amount of ^3 H-farnesol transferred from all-trans ^3 H]farnesyl pyrophosphate ([^3 H]FPP) to p21^H-ras protein. The standard reaction mixture contained the following concentrations of components in a final volume of 25 μl: 50 mM Tris-chloride (pH 7.5), 50 μM ZnCl2, 20 mM KCl, 1 mM DTT, and 40 μM p21^H-ras. The mixture also contained 10 pmoles of [^3 H]FPP (~30,000 dpm/pmol) and 1.8-3.5 μg of partially purified farnesyltransferase (see below). After incubation for 1 hour at 37° C. in 12×75-mm borosilicate tubes, the reaction was stopped by addition of 0.5 ml of 4% SDS and then 0.5 ml of 30% trichloroacetic acid (TCA).
The tubes were vortexed and left on ice for 45-60 min, after which 2 ml of a 6% TCA/2% SDS solution were added. The mixture was filtered on a 2.5-cm glass fiber filter with a Hoefer filtration unit (FH 225). The tubes were rinsed twice with 2 ml of the same solution, and each filter was washed five times with 2 ml of 6% TCA, dried, and counted in a scintillation counter. One unit of activity is defined as the amount of enzyme that transfers 1 pmol of [^3 H]farnesol from [^3 H]FPP into acid-precipitable p21^H-ras per hour under the standard conditions.
The standard assay involved measuring the amount of [^3 H]farnesyl transferred from all-trans [^3 H]FPP to recombinant human p21^H-ras as described in Example I. Each reaction mixture contained the following concentrations of components in a final volume of 25 μl: 50 mM Tris-chloride (pH 7.5), 50 μM ZnCl2, 30 mM KCl, 1 mM DTT, 30 or 40 μM p21^H-ras, 15 pmol [^3 H]FPP (12-23,000 dpm/pmol), 4 to 7.5 μg of partially purified farnesyltransferase (Mono Q fraction, see Example I), and the indicated concentration of competitor peptide added in 3 μl of 10 mM DTT. […] This blank value was subtracted before calculating "% of control" values.
The amount of [^3 H]farnesyl transferred from all-trans-[^3 H]farnesyl pyrophosphate to recombinant p21^H-ras was measured in a filter assay as previously described (62).

[1] = Example II, partially purified rat brain enzyme, p21H-ras acceptor, read-out: Concentration giving 50% inhibition of farnesyltransferase (text, FIG. 14 / Table II)
[2] = Table II, partially purified rat farnesyltransferase, p21H-ras acceptor, seven concentrations 0.03 to 100 μM, read-out: Concentration for 50% Inhibition

| IC50 [2] [µM] | Compound | also measured |
| --- | --- | --- |
| 100 | CC[C@H](C)[C@H](NC(=O)[C@H](C)NC(=O)[C@@H](N)CS)C(=O)N[C@@H](CC(C)C)C(=O)O [CAIL] | IC50 [1]: 100 µM |
| 0.35 | CC[C@H](C)[C@H](NC(=O)[C@@H](NC(=O)[C@@H](N)CS)[C@@H](C)CC)C(=O)N[C@@H](CS)C(=O)O [CIIC] |  |
| 0.35 | CC[C@H](C)[C@H](NC(=O)[C@@H](NC(=O)[C@@H](N)CS)[C@@H](C)CC)C(=O)N[C@@H](CO)C(=O)O [CIIS] |  |
| > 100 | CC[C@H](C)[C@H](NC(=O)[C@@H](N)CS)C(=O)N[C@@H](CCCCN)C(=O)N[C@@H](CO)C(=O)O [CIKS] |  |
| 11 | CC[C@H](C)[C@H](NC(=O)[C@@H](NC(=O)[C@@H](N)CS)C(C)C)C(=O)N[C@@H](CC(C)C)C(=O)O [CVIL] | IC50 [1]: 12 µM |
| 1 | CC[C@H](C)[C@H](NC(=O)[C@@H](NC(=O)[C@@H](N)CS)C(C)C)C(=O)N[C@@H](CO)C(=O)O [CVIS] |  |
| 3 | CC(C)C[C@H](NC(=O)[C@@H](NC(=O)[C@@H](N)CS)C(C)C)C(=O)N[C@@H](CO)C(=O)O [CVLS] |  |

The next lines start with the compound.

| Compound | IC50 [2] [µM] | also measured |
| --- | --- | --- |
| CC(C)[C@H](NC(=O)[C@H](CS)NC(=O)[C@@H](N)CS)C(=O)N[C@@H](CCC(N)=O)C(=O)O [CCVQ] | 0.35 |  |
| CC[C@H](C)[C@H](NC(=O)[C@H](CC(C)C)NC(=O)[C@@H](N)CS)C(=O)N[C@@H](CC(C)C)C(=O)O [CLIL] | 17 |  |
| CC(C)C[C@H](NC(=O)[C@H](CC(C)C)NC(=O)[C@H](CC(C)C)NC(=O)[C@@H](N)CS)C(=O)O [CLLL] | 22 |  |
| CC(C)[C@H](NC(=O)[C@@H](NC(=O)[C@@H](N)CS)[C@@H](C)O)C(=O)N[C@@H](C)C(=O)O [CTVA] | 30 | IC50 [1]: 30 µM |
| CSCC[C@H](NC(=O)[C@H](Cc1ccccc1)NC(=O)[C@@H](NC(=O)[C@@H](N)CS)C(C)C)C(=O)O [CVFM, Cys-Val-Phe-Met] |  | IC50 [1]: 0.025 µM; IC50 (FIG. 23A, Mono Q fraction, 0.5 μM [3H]farnesyl pyrophosphate, 30 min at 37° C., read-out: Concentration giving 50% inhibition of farnesylation of p21H-ras): 0.07 µM; IC50 (Table III footnote, 3-month period, read-out: 50% inhibition values, range over 9 consecutive experiments): 0.032 to 0.09 µM |
| CC[C@H](C)[C@H](NC(=O)[C@@H](NC(=O)[C@@H](N)CS)C(C)C)C(=O)N[C@@H](C)C(=O)O [CVIA] |  | IC50: 5 µM |
| CSCC[C@H](NC(=O)[C@H](CC(C)C)NC(=O)[C@@H](NC(=O)[C@@H](N)CS)C(C)C)C(=O)O [CVLM] | 0.15 |  |

Read-outs that look alike come from different tables or passages of the source.
